Laboratory results: patent US7960404B2, “Spirocyclic cyclohexane compounds” (dated 2011)
Where two headings read alike, the source gives them in different places. Some compounds may have been tested in ways that are not shown here.

Amino acid sequences for entries named in this document (tags omitted).
UniProt P41146, whole entry: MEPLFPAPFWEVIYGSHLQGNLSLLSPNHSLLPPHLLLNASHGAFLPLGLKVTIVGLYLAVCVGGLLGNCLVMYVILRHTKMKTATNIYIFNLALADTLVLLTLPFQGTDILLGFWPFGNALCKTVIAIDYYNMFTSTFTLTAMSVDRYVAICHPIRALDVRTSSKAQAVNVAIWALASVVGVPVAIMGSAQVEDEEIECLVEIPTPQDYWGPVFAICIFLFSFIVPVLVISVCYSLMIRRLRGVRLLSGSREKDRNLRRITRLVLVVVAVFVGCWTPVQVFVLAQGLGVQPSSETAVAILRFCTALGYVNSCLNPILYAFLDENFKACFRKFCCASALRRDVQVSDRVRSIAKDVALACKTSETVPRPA
UniProt P35372, whole entry: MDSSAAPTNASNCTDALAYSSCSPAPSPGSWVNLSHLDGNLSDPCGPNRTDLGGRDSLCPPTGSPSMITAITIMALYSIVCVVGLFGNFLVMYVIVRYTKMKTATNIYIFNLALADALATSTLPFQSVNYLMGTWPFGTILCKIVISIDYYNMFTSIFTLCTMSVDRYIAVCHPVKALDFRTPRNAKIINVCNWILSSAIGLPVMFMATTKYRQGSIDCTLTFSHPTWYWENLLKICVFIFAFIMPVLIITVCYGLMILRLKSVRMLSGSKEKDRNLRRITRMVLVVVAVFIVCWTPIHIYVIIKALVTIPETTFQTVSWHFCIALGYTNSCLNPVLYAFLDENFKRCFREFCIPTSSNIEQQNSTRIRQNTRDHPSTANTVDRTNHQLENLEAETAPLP

Columns and labels:
ORL1 receptor = ORL1 receptor (Homo sapiens, UniProt P41146); assay: ORL1 receptor binding assay with 3H-nociceptin/orphanin FQ (SPA); conditions: for % inhibition (ORL1) [1 μM] / Ki: series R3=phenyl, X=O
human μ-opiate receptor = human μ-opiate receptor (Homo sapiens, UniProt P35372); assay: μ-opiate receptor binding assay with [3H] naloxone (SPA)
[1] = Metabolic stability, incubation with mouse liver microsomes
[2] = Metabolic stability, incubation with human liver microsomes; conditions: substrate 1 μmol/l, 37° C.
[3] = Microsomal biotransformation / metabolite formation, general statements

Substance | affinity for the ORL1 receptor (in words) (ORL1 receptor) | % inhibition (ORL1) [1 μM] (ORL1 receptor; R8=H) [%] | Ki (ORL1 receptor; read-out: Ki (ORL1) mean [μm], R8=H) [nM] | affinity for the μ-opioid receptor (in words) (human μ-opiate receptor) | % inhibition (μ) [1 μm] (human μ-opiate receptor; 1 μm, series R3=phenyl, R8=H, X=O) [%] | Ki (human μ-opiate receptor; read-out: Ki (μ) mean [μm], series R3=phenyl, R8=H, X=O) [nM] | % inhibition (ORL1) [1 μM] (ORL1 receptor; R8=F) [%] | Ki (ORL1 receptor; read-out: Ki (ORL1) mean, R8=F) [nM] | % inhibition (μ) [1 μM] (human μ-opiate receptor; 1 μM, series R3=phenyl, R8=F, X=O) [%] | Ki (human μ-opiate receptor; read-out: Ki (μ) mean, series R3=phenyl, R8=F, X=O) [nM] | conversion rate as share of the conversion rate for V-1 ([1]; mouse microsomes, rate as % of V-1) | Conversion rate for mouse microsomes (300 pmol/ml) ([1]; substrate 1 μmol/l, mouse microsomes 300 pmol/ml, 37° C.) [nmol/min/nmol P450] | Conversion rate for human microsomes (300 pmol/ml) [2] | formation of the N-demethyl metabolite [3]
N-{4′,9′-Dihydro-4-phenylspiro[cyclohexane-1,1′(3′H)-pyrano[3,4-b]indol]-4-yl}-pyrrolidine, 2-hydroxy-1,2,3-propanetricarboxylate (4:3) | comparable to V-8 | 95 | 3.5 | comparable to V-8 | 94 | 1.1 |  |  |  |  |  |  |  | 
N-{6′-Fluoro-4′,9′-dihydro-4-phenylspiro[cyclohexane-1,1′(3′H)-pyrano[3,4-b]indol]-4-yl}-azetidine, 2-hydroxy-1,2,3-propanetricarboxylate (2:1) |  |  |  |  |  |  | 91 | 12.3 | 101 | 1.9 | less than 10% | 0.0009 | no conversion determined | do not form the N-demethyl metabolite
